US7739055B2, “Methods and systems for generating and evaluating peptides” (priority 2005, dated 2010)
≈ marks a conversion by molar mass, not a printed value.

System: Escherichia coli
Conditions: first concentration that prohibits growth by OD at 24 hours; Table 1

CC[C@H](C)[C@H](NC(=O)CN)C(=O)NCC(=O)N[C@@H](C)C(=O)N[C@H](C(=O)N[C@@H](CC(C)C)C(=O)N[C@@H](CCCCN)C(=O)N[C@H](C(=O)N[C@@H](CC(C)C)C(=O)N[C@H](C(=O)N[C@H](C(=O)NCC(=O)N[C@@H](CC(C)C)C(=O)N1CCC[C@H]1C(=O)N[C@@H](C)C(=O)N[C@@H](CC(C)C)C(=O)N[C@H](C(=O)N[C@@H](CO)C(=O)N[C@@H](Cc1c[nH]c2ccccc12)C(=O)N[C@H](C(=O)N[C@@H](CCCCN)C(=O)N[C@@H](CCCNC(=N)N)C(=O)N[C@@H](CCCCN)C(=O)N[C@@H](CCCNC(=N)N)C(=O)N[C@@H](CCC(N)=O)C(=O)N[C@@H](CCC(N)=O)C(N)=O)[C@@H](C)CC)[C@@H](C)CC)[C@@H](C)O)[C@@H](C)O)C(C)C)C(C)C [Melittin]
MIC E. coli: 16 µg/mL (≈ 5.62 µM)
